Target: PHD2_181-402 (Homo sapiens, UniProt Q9GZT9)
Test: Km determination of 2-OG for PHD2_181-402 (succinate detection)
Format: biochemical
Conditions: 100 nM PHD2_181-402, 2-OG 625 nM to 40 μM, 10-minute reaction, Michaelis-Menten fit

Sequences of proteins named here, by UniProt entry; tags and fusion partners are left off. Residues count along the entry.
UniProt Q9GZT9, 181-402: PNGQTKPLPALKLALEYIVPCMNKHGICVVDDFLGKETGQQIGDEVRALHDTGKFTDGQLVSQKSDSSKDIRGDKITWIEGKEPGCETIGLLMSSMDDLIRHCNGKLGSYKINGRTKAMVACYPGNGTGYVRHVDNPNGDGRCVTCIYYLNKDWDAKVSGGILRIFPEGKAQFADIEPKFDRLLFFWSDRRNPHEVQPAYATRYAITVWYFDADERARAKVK

Question: How did the Km turn out when `O=C(O)CCC(=O)C(=O)O` [2-OG, 2-oxoglutarate] was run?
Answer: 1.2 µM
